{"sequences": {"note": "Sequences of proteins named here, by UniProt entry; tags and fusion partners are left off.", "UniProt Q61009, whole entry": "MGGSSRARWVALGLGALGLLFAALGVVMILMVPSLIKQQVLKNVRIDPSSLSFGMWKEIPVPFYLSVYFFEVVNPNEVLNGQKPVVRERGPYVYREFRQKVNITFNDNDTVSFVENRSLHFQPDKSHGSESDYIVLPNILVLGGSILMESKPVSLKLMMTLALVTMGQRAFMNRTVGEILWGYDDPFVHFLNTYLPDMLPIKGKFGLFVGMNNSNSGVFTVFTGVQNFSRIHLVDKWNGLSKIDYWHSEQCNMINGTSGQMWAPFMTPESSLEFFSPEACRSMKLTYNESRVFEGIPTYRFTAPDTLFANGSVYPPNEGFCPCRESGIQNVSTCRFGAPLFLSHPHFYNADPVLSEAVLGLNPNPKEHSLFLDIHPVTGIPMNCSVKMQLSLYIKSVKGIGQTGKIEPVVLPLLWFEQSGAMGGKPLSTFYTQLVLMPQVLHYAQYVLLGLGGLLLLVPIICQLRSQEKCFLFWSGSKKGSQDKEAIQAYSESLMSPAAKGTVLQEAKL"}, "source": "PubChem BioAssay AID488896", "about": "(Broad Institute, 2010)", "note": "The entries are a selection whose mix differs from that of the whole data set. Activity calls are given as the source filed them.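 The calls were made as follows: active = mean replicate inhibition of at least 70% and a set share of replicates each scoring 70 or more; inconclusive = meets just one of the two criteria; inactive = fails both criteria.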", "data": [{"biological_target": "Scavenger receptor class B member 1 (Mus musculus) (UniProt Q61009)", "test": "inhibitors of SR-BI mediated HDL lipid uptake, primary screen, ldlA[mSR-BI] cells, fluorescence, single point (AID 488896);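 also: 0% = median of neutral control wells and 100% = median of positive control wells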", "settings": "ldlA[mSR-BI] CHO cells, DiI-HDL uptake fluorescence, 3 h; at 12.5 µM; hits give high values", "values": [{"molecule": "CCOP(C)(=S)SCC(=O)NC(C)(CC)C(=O)O", "note": "(stereo not given)", "inhibition": "inactive: -0.118%"}, {"molecule": "CP(=O)(Nc1ccc2c(c1)OCCO2)Oc1ccccc1", "note": "(stereo not given)", "inhibition": "inactive: -23.5%"}, {"molecule": "Cc1ccccc1NP(C)(=O)Nc1ccccc1C", "inhibition": "inactive: -17.7%"}, {"molecule": "COc1ccc(OP(C)(=O)Nc2ccc(Br)cc2)cc1", "note": "(stereo not given)", "inhibition": "inactive: -137%"}, {"molecule": "CCN(CC)CC(O)COC(=O)C(O)(c1ccccc1)C1CCCCC1", "note": "(stereo not given)", "inhibition": "inactive: 0.453%"}, {"molecule": "CCc1ccc(OP(C)(=O)Nc2cccnc2)cc1", "note": "(stereo not given)", "inhibition": "inactive: -12%"}, {"molecule": "CP(=O)(Oc1ccccc1)N1CCOC1=O", "note": "(stereo not given)", "inhibition": "inactive: -47.3%"}, {"molecule": "O=C(OCCCN1CCCC1)C(O)(c1ccccc1)C1CCCCC1", "note": "(stereo not given)", "inhibition": "inactive: -18%"}, {"molecule": "COc1ccccc1OP(C)(=O)Nc1c(C)n(C)n(-c2ccccc2)c1=O", "note": "(stereo not given)", "inhibition": "inactive: -18.3%"}, {"molecule": "CP(=O)(Nc1ccc(Cl)cc1)Oc1ccc(F)cc1", "note": "(stereo not given)", "inhibition": "inactive: -2.18%"}, {"molecule": "COc1ccccc1OP(C)(=O)Nc1ccccc1Br", "note": "(stereo not given)", "inhibition": "inactive: 21.9%"}, {"molecule": "CC(C)(C)c1ccc(OP(C)(=O)O)cc1", "inhibition": "inactive: -23.2%"}, {"molecule": "CN(C)C(=O)c1c([N+](=O)[O-])cc([N+](=O)[O-])cc1[N+](=O)[O-]", "inhibition": "inactive: -2.13%"}, {"molecule": "CP(=O)(OC12CC3CC(CC(C3)C1)C2)OC12CC3CC(CC(C3)C1)C2", "inhibition": "inactive: -11.4%"}, {"molecule": "CCOC(=O)c1ccc(NP(C)(=O)Oc2ccc(Cl)cc2)cc1", "note": "(stereo not given)", "inhibition": "inactive: -12.8%"}, {"molecule": "Cc1cc(C)cc(OP(C)(=O)Nc2cccc(C(F)(F)F)c2)c1", "note": "(stereo not given)", "inhibition": "inactive: 1.76%"}, {"molecule": "O=C1C(O)=C([N+](=O)[O-])C(=O)C(O)=C1[N+](=O)[O-]", "inhibition": "inactive: -4.37%"}, {"molecule": "COc1ccc(OP(C)(=O)Nc2ccccc2Br)cc1", "note": "(stereo not given)", "inhibition": "inactive: 16.4%"}, {"molecule": "COc1ccccc1OP(C)(=O)Nc1ccc(C)c(C)c1", "note": "(stereo not given)", "inhibition": "inactive: 28.4%"}, {"molecule": "CCCCCCCCCCCCCCCC1C[N+](C)(C)CCOP(C)(=O)O1", "note": "(stereo not given)", "inhibition": "inactive: 15.4%"}, {"molecule": "CP(=O)(Nc1ccc(Cl)cc1Cl)Oc1ccccc1", "note": "(stereo not given)", "inhibition": "inactive: 13%"}, {"molecule": "CP(=O)(OCCOc1ccccc1)OCCOc1ccccc1", "inhibition": "inactive: 17.3%"}, {"molecule": "COc1ccccc1OP(C)(=O)Nc1ccc(Br)cc1", "note": "(stereo not given)", "inhibition": "inactive: 3.82%"}, {"molecule": "CN(C)CCOC(=O)C(O)(c1ccccc1)C1CCCC1", "note": "(stereo not given)", "inhibition": "inactive: -30.6%"}, {"molecule": "COc1ccc(OP(C)(=O)Nc2ccccn2)cc1", "note": "(stereo not given)", "inhibition": "inactive: -20%"}, {"molecule": "Cc1c(NP(C)(=O)Oc2ccc(C(C)C)cc2)c(=O)n(-c2ccccc2)n1C", "note": "(stereo not given)", "inhibition": "inactive: 6.12%"}, {"molecule": "O=[N+]([O-])c1cc([N+](=O)[O-])c(Nc2ccccn2)c([N+](=O)[O-])c1", "inhibition": "inactive: 1.34%"}, {"molecule": "CCc1ccc(OP(C)(=O)O)cc1", "inhibition": "inactive: -28.6%"}, {"molecule": "COc1ccccc1OP(C)(=O)Nc1ccc(C)cc1C", "note": "(stereo not given)", "inhibition": "inactive: 16.1%"}, {"molecule": "CP(=O)(Nc1ccccn1)Oc1ccccc1", "note": "(stereo not given)", "inhibition": "inactive: -8.89%"}]}]}
